Experimental data from patent US10807974B2, “Methylamine derivatives as lysysl oxidase inhibitors for the treatment of cancer” (The Institute of Cancer Research: Royal Cancer Hospital, priority 2016, dated 2020).
Structures can show the parent of a compound that is named as a salt.

Amino acid sequences for entries named in this document (tags omitted). Residues count along the entry.
UniProt Q9Y4K0, 26-774, species assumed: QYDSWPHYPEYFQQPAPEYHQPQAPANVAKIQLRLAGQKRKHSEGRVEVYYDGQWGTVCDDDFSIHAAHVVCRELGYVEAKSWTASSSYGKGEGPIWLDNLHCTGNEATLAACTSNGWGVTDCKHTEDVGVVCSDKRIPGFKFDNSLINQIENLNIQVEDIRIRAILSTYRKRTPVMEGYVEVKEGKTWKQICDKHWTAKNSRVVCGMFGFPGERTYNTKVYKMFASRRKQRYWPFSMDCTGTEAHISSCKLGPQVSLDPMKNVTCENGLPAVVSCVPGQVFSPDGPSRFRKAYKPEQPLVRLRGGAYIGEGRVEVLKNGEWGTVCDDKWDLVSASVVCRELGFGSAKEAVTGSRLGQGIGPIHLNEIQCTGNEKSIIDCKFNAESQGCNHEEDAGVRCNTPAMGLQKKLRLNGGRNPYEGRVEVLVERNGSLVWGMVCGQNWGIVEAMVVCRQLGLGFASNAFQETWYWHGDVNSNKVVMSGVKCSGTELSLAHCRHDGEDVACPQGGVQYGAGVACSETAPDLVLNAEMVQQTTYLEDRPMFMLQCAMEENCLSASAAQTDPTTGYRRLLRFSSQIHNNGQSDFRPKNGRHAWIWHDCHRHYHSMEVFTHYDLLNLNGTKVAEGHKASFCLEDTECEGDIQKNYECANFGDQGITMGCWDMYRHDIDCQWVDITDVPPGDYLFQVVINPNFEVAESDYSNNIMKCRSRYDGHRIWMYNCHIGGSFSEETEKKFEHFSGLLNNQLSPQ
UniProt P21397, whole entry: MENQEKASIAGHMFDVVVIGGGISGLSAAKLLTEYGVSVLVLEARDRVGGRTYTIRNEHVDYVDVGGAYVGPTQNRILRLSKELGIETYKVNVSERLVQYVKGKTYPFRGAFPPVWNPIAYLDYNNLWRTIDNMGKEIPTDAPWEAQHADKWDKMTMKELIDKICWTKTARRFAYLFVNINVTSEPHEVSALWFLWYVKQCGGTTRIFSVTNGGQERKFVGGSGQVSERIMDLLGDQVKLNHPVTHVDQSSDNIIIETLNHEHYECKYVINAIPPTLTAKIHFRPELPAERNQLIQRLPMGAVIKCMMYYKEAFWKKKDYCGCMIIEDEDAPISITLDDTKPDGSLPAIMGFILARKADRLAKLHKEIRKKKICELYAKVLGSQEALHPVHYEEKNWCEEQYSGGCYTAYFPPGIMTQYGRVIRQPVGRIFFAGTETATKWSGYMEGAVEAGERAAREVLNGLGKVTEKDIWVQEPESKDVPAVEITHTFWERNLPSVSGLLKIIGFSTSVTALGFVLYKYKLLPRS
UniProt P27338, whole entry: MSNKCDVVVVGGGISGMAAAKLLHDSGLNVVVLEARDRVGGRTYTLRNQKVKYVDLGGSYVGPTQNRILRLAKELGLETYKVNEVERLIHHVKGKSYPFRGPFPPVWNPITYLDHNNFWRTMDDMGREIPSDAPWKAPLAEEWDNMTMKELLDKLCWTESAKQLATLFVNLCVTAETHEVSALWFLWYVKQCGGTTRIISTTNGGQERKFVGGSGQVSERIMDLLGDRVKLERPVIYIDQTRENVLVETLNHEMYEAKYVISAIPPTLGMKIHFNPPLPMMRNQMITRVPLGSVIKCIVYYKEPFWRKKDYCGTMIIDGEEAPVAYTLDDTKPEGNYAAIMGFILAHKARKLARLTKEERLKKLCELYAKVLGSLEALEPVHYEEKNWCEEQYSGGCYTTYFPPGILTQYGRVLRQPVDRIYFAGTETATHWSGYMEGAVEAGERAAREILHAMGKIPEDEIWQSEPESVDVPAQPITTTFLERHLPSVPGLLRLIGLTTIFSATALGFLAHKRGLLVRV

Each molecule was assayed against LOXL2 (Homo sapiens (Human), UniProt Q9Y4K0) (assay: LOXL2 enzyme activity assay (ROS-Glo; pre-incubation 20 min Method (a), 60 min Method (b), 20 h Method (c))). Details: read-out: LOXL2 IC50 b) 1 hr.
Format: biochemical
Molecule `CCc1cc(-c2c(C)noc2C)cc(S(=O)(=O)c2cnc(CN)s2)c1` has an IC50 of 280 nM.
`CCc1cc(-c2ccc[n+]([O-])c2)cc(S(=O)(=O)c2cnc(CN)s2)c1` was tested, and the IC50 was 150 nM.
`CC(C)(C)c1cc(-c2ccccc2)cc(S(=O)(=O)c2cnc(CN)s2)c1` showed an IC50 of 1260 nM.
Work on `CCc1cc(-c2ccsc2)cc(S(=O)(=O)c2cnc(CN)s2)c1` yielded an IC50 of 290 nM.
Work on `NCc1ncc(S(=O)(=O)c2cc(C(=O)O)cc(-c3ccccc3)c2)s1` yielded an IC50 of 240 nM.
Molecule `COc1cc(-c2cnn(C)c2)cc(S(=O)(=O)c2cnc(CN)s2)c1` has an IC50 of 82 nM.
With `CCn1cc(-c2cc(OC)cc(S(=O)(=O)c3cnc(CN)s3)c2)cn1` the IC50 was 94 nM.
With `COc1cc(-c2cnn(C3CC3)c2)cc(S(=O)(=O)c2cnc(CN)s2)c1` the IC50 was 74 nM.
`Cc1ccc(-c2cc(S(=O)(=O)c3cnc(CN)s3)ccc2S(C)(=O)=O)cc1` gave an IC50 of 260 nM.
Molecule `COc1cc(-c2cn(C)cn2)cc(S(=O)(=O)c2cnc(CN)s2)c1` has an IC50 of 140 nM.
`CS(=O)(=O)c1cc(-c2ccc(C(F)(F)F)cc2)cc(S(=O)(=O)c2cnc(CN)s2)c1` was tested, and the IC50 was 170 nM.
In the case of `Cn1cc(-c2cc(C(=O)O)cc(S(=O)(=O)c3cnc(CN)s3)c2)cn1`, the IC50 is reported as 240 nM.
`CCc1cc(-c2cnn(C)c2)cc(S(=O)(=O)c2csc(CN)n2)c1` was tested, and the IC50 was 320 nM.
`Cn1cc(-c2cc(F)cc(S(=O)(=O)c3cnc(CN)s3)c2)cn1` [Example 131, (5-(3-Fluoro-5-(1-methyl-1H-pyrazol-4-yl)phenyl)sulfonyl)thiazol-2-yl)methanamine Trihydrochloride] was tested, and the IC50 was 85 nM.
Molecule `Cn1cc(-c2cc(C(F)(F)F)cc(S(=O)(=O)c3cnc(CN)s3)c2)cn1` [Example 143] has an IC50 of 310 nM.

These molecules were tested against MAO-A (Homo sapiens (Human), UniProt P21397) (assay: Monoamine oxidase A (MAO-A) selectivity assay). Details: not given.
Format: biochemical
In the case of `CS(=O)(=O)c1cc(-c2ccccc2)cc(S(=O)(=O)c2ccc(CN)s2)c1`, the “inhibition of MAO-A” value is reported as “neither inhibits”.
Work on `Cc1ccc(-c2cccc(S(=O)(=O)c3cnc(CN)s3)c2)cc1` yielded an IC50 of 27000 nM.
With `NCc1ncc(S(=O)(=O)c2cc3ccccc3c3ccccc23)s1` the IC50 was 46000 nM.

The molecules below were run against MAO-B (Homo sapiens (Human), UniProt P27338) (assay: Monoamine oxidase B (MAO-B) selectivity assay). Details: not given.
For `CS(=O)(=O)c1cc(-c2ccccc2)cc(S(=O)(=O)c2ccc(CN)s2)c1`, the “inhibition of MAO-B” value was “neither inhibits”.

Same assay, conditions: read-out: MAO B IC50
`CS(=O)(=O)c1cc(-c2cccnc2)cc(S(=O)(=O)c2ccc(CN)s2)c1` was tested, and the IC50 was > 100000 nM.
`Cc1ccc(-c2cccc(S(=O)(=O)c3cnc(CN)s3)c2)cc1` showed an IC50 of 17000 nM.

Each molecule was assayed on EGF-stimulated AKT phosphorylation in MDA-MB-231 cells (assay: AKT activation assay (pS473AKT/total AKT ELISA)). Details: 20 μM compound.
In the case of `CS(=O)(=O)c1cc(-c2ccccc2)cc(S(=O)(=O)c2ccc(CN)s2)c1` [drawing 384], the “pAKT/AKT % inhibited vs control in MDA-MB231 cells” value is reported as 39%.
